Values of other authors in patent US20110039811A1, “TREATING HYPERGLYCEMIA WITH 25-HYDROXYVITAMIN D3” (priority 2008, published 2011).

Settings: Hathcock et al. 2007; 10'000 IU; cited from earlier work

Q: For Vitamin D, which safe upper level is on record?
A: at least 250 μg/day
